The target in the test is Papain (E.C.3.4.22.2, from papaya latex) (papaya) (UniProt P00784). The following applies: domain or fragment.

Among the data in doi:10.1101/2021.07.22.453419 are Ki values, retold here.

For orientation: Ki means the dissociation constant of the complex between target and ligand, obtained from inhibition or displacement.

Take potato multicystatin domain StCYS5: the inhibition constant Ki is 6 nM.
